Our source for the IC50 values is patent US20230339970A1, “CASEIN KINASE 1 DELTA MODULATORS” (priority 2020, published 2023).

The chains behind the UniProt entries cited, without tags or fusion partners. Where a name states a change or a piece, a line headed by the entry shows the natural chain unless it says otherwise.
UniProt P48730: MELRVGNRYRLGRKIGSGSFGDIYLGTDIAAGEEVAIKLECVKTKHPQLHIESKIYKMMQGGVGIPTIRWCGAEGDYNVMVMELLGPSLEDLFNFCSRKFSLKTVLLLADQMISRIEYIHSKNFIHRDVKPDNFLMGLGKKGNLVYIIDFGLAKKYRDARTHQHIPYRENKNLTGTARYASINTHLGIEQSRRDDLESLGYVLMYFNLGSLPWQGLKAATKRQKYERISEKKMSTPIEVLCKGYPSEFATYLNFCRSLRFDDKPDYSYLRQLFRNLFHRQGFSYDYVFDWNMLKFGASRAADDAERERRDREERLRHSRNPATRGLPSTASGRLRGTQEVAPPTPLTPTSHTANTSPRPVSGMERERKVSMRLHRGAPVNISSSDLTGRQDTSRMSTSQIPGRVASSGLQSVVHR

A word on the pIC50: it is the IC50 on a negative log10 scale, so that one unit is a factor of ten. One may read the IC50 as the point on the concentration scale where inhibition reaches its midpoint.

pIC50: −log10 of the molar value. Read-outs that look alike come from different tables or passages of the source.

The target in one assay is T1, human CSNK1D (Homo sapiens, UniProt P48730).
T1 construct: expressed in transfected cells
The assay is described as follows: Whole Cell nBRET CSNK1D Binding Assay.

For assay [1], the target named is T2, human recombinant GST cleaved CSNK1D (Homo sapiens, UniProt P48730).
T2 construct: GST (cleaved yes); purchased University of Dundee clone DU 19064
Briefly: Purified Enzyme Assay (ADP-Glo CSNK1D Kinase Assay). In kind it is biochemical. To be noted: 2 nM CSNK1D, peptide substrate 150 μM, ATP 20 μM, 45 minutes at room temperature; for IC50: ADP-Glo ™ CSNK1D Kinase Assay IC50 (μM). The method, then: In this assay, CSNK1D phosphorylates a substrate peptide PLSRTL-pS-VASLPGL in the presence of ATP. […] This assay monitors CSNK1D kinase activity by measuring the amount of ADP produced in the assay.
The substrate mix is added to each well of a low volume, 384-well, white opaque plate. Test compounds were diluted in HBSS and added in a dose-response to the plate.
The total volume of each reaction is 5 ul (2 μL of substrate mix, 1 μL of diluted compounds, and 2 μL of human recombinant CSNK1D). The plates are incubated for 45 minutes at room temperature.
ADP was quantified using the ADP-Glo™ Kinase Assay. ADP-Glo Reagent (5 μL) was added to each well. After a 1 hour incubation at room temperature, Kinase Detection Reagent (10 μL) was added to each well and incubated for 30 minutes. […] The raw data from the Envision is used to calculate percent activity.
(In general: ADP-Glo first removes unused ATP, then detects ADP through luciferase.)

In the case of `[2H]C1([2H])OC(C([2H])([2H])[2H])(C([2H])([2H])[2H])C([2H])([2H])n2nc(-c3ccc(F)cn3)c(-c3ccnc4[nH]ncc34)c21` [Example 411, 2-(5-Fluoropyridin-2-yl)-6,6-bis(methyl-d3)-3-(1H-pyrazolo[3,4-b]pyridin-4-yl)-6,7-dihydro-4H-pyrazolo[5,1-c][1,4]oxazine-4,4,7,7-d4], the pIC50 on human CSNK1D was 7.40. For the same compound, in assay [1], the IC50 came out at 0.003 µM.

For the compound `[2H]C([2H])([2H])C1(C([2H])([2H])[2H])Cn2nc(-c3ccc(F)cn3)c(-c3ccnc4[nH]ncc34)c2CO1` [Example 142, 2-(5-Fluoropyridin-2-yl)-6,6-bis(methyl-d3)-3-(1H-pyrazolo[3,4-b]pyridin-4-yl)-6,7-dihydro-4H-pyrazolo[5,1-c][1,4]oxazine], the pIC50 at human CSNK1D was 7.15; in assay [1] (read-out: ADP-Glo ™ CSNK1D Kinase Assay IC50) it was 8.40.

The compound `[2H]C1([2H])n2nc(-c3ccc(F)cn3)c(-c3ccnc4[nH]ncc34)c2COC1(C)C` [Example 143, 2-(5-Fluoropyridin-2-yl)-6,6-dimethyl-3-(1H-pyrazolo[3,4-b]pyridin-4-yl)-6,7-dihydro-4H-pyrazolo[5,1-c][1,4]oxazine-7,7-d2] gave a pIC50 on human CSNK1D of 7.42. Moreover, the IC50 in assay [1] is 0.005 µM.

Regarding `[2H]C1([2H])OC(C)(C)Cn2nc(-c3ccc(F)cn3)c(-c3ccnc4[nH]ncc34)c21` [Example 151, 2-(5-Fluoropyridin-2-yl)-6,6-dimethyl-3-(1H-pyrazolo[3,4-b]pyridin-4-yl)-6,7-dihydro-4H-pyrazolo[5,1-c][1,4]oxazine-4,4-d2], on human CSNK1D, the pIC50 is 7.38. In assay [1], the IC50 worked out at 0.003 µM.

The compound `CC1(C)Cn2nc(-c3ccc(F)cn3)c(-c3ccnc4[nH]ncc34)c2CO1` [Example 150, 2-(5-Fluoropyridin-2-yl)-6,6-dimethyl-3-(1H-pyrazolo[3,4-b]pyridin-4-yl)-6,7-dihydro-4H-pyrazolo[5,1-c][1,4]oxazine] gave a pIC50 at human CSNK1D of 7.24. The IC50 in assay [1] stood at 0.002 µM.
